Tests used:
CNS nicotinic receptors = test: Determination of binding to relevant receptor sites; conditions: inhibition constant calculated from IC50 by the method of Cheng et al.
Protocol: Determination of Binding to Relevant Receptor Sites
Binding of the compounds to relevant receptor sites was determined in accordance with the techniques described in U.S. Pat. No. 5,597,919 to Dull et al. Inhibition constants (Ki values), reported in nM, were calculated from the IC50 values using the method of Cheng et al., Biochem, Pharmacol. 22:3099 (1973).

Rat brain synaptosomes = test: Determination of dopamine release / neurotransmitter release from brain synaptosomes; assay type: cell-based; conditions: amount released relative to (S)-(-)-nicotine on a percentage basis
Protocol: Determination of Dopamine Release
Dopamine release was measured using the techniques described in U.S. Pat. No. 5,597,919 to Dull et al. Release is expressed as a percentage of release obtained with a concentration of (S)-(−)-nicotine resulting in maximal effects. Reported EC50 values are expressed in nM, and Emax values represent the amount released relative to (S)-(−)-nicotine on a percentage basis.
Neurotransmitter Release from Brain Synaptosomes
Neurotransmitter release was measured using techniques similar to those previously published (Bencherif M, et al. JPET 279: 1413-1421, 1996).
Rat brain synaptosomes were prepared as follows: Female Sprague Dawley rats (100-200 g) were killed by decapitation after anesthesia with 70% CO2. Brains are dissected, and hippocampus, striatum, and thalamus isolated, and homogenized in 0.32 M sucrose containing 5 mM HEPES pH 7.4 using a glass/glass homogenizer. The tissue was then centrifuged for 1000×g for 10 minutes and the pellet discarded. The supernatant was centrifuged at 12000×g for 20 minutes. […] The perfusate was collected directly into scintillation vials and released radioactivity was quantified using conventional liquid scintillation techniques. Release of neurotransmitter was determined in the presence of 10 uM of various ligands and was expressed as a percentage of release obtained with a concentration of 10 uM (S)-(−)-nicotine.

Substance	Ki (CNS nicotinic receptors) [nM]	Emax value for dopamine release (Rat brain synaptosomes) [%]
(1S,4S)-(6-chloro-3-pyridazinyl)-2,5-diazabicyclo[2.2.1]heptane hemigalactarate [Sample No. 4]	43	128
(1S,4S)-(5-(4-methoxyphenoxy)-3-pyridyl)-2,5-diazabicyclo[2.2.1]heptane hemigalactarate [Sample No. 2]	13	24
(1S,4S)-(5-pyrimidinyl)-2,5-diazabicyclo[2.2.1]heptane hemigalactarate [Sample No. 3]	6	
